Earlier results on one molecule are cited in patent US20240058336A1, “DOSING OF FEDRATINIB” (IMPACT BIOMEDICINES, INC., priority 2020, published 2024).

Chains of the proteins cited; added tags and fusions are not shown.
UniProt O60674, whole entry V617F: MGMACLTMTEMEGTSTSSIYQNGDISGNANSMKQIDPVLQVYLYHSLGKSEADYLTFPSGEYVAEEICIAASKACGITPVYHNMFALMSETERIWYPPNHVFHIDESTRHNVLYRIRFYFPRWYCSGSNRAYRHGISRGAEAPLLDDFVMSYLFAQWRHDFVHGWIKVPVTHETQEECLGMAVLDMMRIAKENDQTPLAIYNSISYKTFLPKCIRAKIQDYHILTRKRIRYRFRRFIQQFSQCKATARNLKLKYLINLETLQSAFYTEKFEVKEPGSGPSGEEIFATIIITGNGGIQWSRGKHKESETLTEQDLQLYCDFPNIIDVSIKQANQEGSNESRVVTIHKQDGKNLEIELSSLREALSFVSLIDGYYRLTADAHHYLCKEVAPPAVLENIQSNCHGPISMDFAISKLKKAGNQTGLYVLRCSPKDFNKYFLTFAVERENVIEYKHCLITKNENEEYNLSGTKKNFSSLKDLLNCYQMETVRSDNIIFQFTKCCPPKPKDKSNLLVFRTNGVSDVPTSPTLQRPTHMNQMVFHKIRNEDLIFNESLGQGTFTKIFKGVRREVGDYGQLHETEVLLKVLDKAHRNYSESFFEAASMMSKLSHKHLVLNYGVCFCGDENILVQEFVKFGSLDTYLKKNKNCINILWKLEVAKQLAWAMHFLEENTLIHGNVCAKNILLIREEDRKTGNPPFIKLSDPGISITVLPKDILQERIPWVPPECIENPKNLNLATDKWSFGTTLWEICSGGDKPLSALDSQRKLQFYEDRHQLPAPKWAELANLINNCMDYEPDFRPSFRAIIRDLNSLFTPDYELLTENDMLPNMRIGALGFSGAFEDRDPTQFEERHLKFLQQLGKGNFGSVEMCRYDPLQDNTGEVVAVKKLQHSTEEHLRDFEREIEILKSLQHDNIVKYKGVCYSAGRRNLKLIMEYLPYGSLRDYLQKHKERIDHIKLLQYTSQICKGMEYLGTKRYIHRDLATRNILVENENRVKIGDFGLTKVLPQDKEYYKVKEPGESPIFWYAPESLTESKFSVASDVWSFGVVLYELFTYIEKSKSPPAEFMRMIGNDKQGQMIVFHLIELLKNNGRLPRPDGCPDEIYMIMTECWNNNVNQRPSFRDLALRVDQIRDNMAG

Structures are written as SMILES. Structures can show the parent of a compound that is named as a salt.

In one data set the target is JAK2 wild-type (WT) (Homo sapiens, UniProt O60674). Conditions: cited from earlier work.
Data set [1] addresses activated mutant JAK2V617F (Homo sapiens, UniProt O60674, V617F). The note with it: cited from earlier work.

As to `Cc1cnc(Nc2ccc(OCCN3CCCC3)cc2)nc1Nc1cccc(S(=O)(=O)NC(C)(C)C)c1` [fedratinib, N-tert-butyl-3-[(5-methyl-2-{[4-(2-pyrrolidin-1-ylethoxy)phenyl]amino}pyrimidin-4-yl)amino]benzenesulfonamide dihydrochloride monohydrate], the kinase selectivity entry on JAK2 wild-type (WT) (JAK2 versus JAK1, JAK3, TYK2) was “selective for JAK2 over JAK1, JAK3 and tyrosine kinase 2 (TYK2)”. Moreover, the “inhibition of JAK2 wild-type” value on JAK2 wild-type (WT) was “inhibits”. Besides, the “inhibition of JAK2V617F” value in data set [1] is given as “inhibits”.
